This is an account of results in BindingDB's records for doi:10.7270/Q24B305P (D3R/Abbott, 2015).

Molecules are shown by their SMILES.

This assay concerns the target Urokinase-type plasminogen activator [179-424,C299A,N323Q] (Human, UniProt P00749, C299A/N323Q). Put plainly: Photometric_Method1.
A word on the Ki: it is the equilibrium dissociation constant of an inhibitor or competing ligand from its target. A low value points to tighter binding. In turn, `COc1ccc2ccc(C(=N)N)cc2c1OCC(N)=O` [uPa_4] displayed a Ki of 637 nM.

`N=C(N)c1ccc2cc(C(=O)Nc3ccccc3)ccc2c1` [uPa_7] returned a Ki of 628 nM.

`COC(=O)Nc1cccc2ccc(C(=N)N)cc12` [uPa_10] registered a Ki of 40 nM.

In the case of `COc1ccc2ccc(C(=N)N)cc2c1-c1cnn(S(C)(=O)=O)c1` [uPa_13], the Ki is 630 nM.
